Measurements as given in US8877778B2, “Benzofurane compounds” (Hoffmann-La Roche Inc., priority 2010, dated 2014).

By UniProt entry, the sequences of proteins in these tests, tags left out.
UniProt P28223, whole entry: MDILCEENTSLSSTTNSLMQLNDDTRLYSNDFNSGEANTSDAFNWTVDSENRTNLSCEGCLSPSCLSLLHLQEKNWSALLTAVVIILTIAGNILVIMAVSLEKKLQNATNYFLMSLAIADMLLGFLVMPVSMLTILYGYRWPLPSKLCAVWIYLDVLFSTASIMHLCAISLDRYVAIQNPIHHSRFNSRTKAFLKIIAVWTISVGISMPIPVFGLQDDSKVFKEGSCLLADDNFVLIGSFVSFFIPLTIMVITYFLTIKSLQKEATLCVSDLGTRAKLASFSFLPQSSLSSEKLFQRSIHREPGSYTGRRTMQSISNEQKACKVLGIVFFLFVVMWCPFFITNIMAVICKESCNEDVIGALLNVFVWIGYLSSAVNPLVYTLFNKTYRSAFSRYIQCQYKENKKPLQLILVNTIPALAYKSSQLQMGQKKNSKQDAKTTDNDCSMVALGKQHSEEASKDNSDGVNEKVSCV
UniProt P14416, whole entry: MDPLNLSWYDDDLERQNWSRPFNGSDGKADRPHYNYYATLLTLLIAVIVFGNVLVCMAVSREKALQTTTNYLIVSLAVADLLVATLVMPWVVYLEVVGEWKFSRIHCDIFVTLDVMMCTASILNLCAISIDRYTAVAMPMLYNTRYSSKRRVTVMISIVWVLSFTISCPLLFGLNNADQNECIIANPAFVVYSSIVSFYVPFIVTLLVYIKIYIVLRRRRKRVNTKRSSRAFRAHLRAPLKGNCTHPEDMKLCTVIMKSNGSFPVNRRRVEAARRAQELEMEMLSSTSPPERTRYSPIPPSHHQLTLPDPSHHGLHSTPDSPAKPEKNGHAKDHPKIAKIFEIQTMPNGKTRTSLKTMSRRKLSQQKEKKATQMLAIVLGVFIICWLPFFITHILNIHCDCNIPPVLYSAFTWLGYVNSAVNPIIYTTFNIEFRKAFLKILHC
UniProt P35462, whole entry: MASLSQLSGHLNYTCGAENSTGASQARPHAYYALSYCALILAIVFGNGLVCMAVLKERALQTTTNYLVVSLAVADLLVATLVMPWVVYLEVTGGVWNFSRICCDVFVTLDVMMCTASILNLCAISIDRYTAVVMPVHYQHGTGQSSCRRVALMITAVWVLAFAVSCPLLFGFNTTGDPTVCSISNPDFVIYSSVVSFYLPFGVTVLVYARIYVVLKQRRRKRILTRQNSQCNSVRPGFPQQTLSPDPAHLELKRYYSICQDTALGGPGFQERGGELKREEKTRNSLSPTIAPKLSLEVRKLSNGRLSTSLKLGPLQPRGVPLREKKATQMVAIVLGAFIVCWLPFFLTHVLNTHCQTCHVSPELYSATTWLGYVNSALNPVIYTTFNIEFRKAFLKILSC

What was measured:
[1] = target: human 5-HT2A receptor (Homo sapiens (Human), UniProt P28223); assay: Radioligand binding ([3H]-ketanserin) to cloned receptors expressed in HEK-293 EBNA cells; conditions: HEK293 EBNA cell membranes expressing human 5-HT2A
Procedure: (§1) The ability of the compounds to bind to the 5-HT2A, D3 and D2 receptors was determined using radioligand binding to cloned receptors selectively expressed in HEK-293 EBNA cells.
(§2) HEK293 EBNA cells were transiently transfected with expression plasmids encoding for the human D2 or D3 or for the human 5-HT2A receptor, respectively. The cells were harvested 48 h post-transfection, washed three times with cold PBS and stored at −80° C. prior to use. The pellet was suspended in cold 50 mM Tris-HCl buffer comprising 10 mM EDTA (pH 7.4) and was homogenized with a Polytron (Kinematica AG, Basel, Switzerland) for 20-30 sec at 12.000 rpm. After centrifugation at 48.000×g for 30 min at 4° C., the pellet was resuspended in cold 10 mM Tris-HCl buffer comprising 0.1 mM EDTA (pH 7.4), homogenized, and centrifuged as above. This pellet was further resuspended in a smaller volume of ice cold 10 mM Tris-HCl buffer comprising 0.1 mM EDTA (pH 7.4) and homogenized with a Polytron for 20-30 sec at 12.000 rpm. The protein content of this homogenate was determined with the Bio-Rad (Bradford) Protein Assay (Biorad Laboratories GmbH, München, Germany) according to the instructions of the manufacturer using gamma globulin as the standard. This homogenate was stored at −80° C. in aliquots and thawed immediately prior to use.
(§3) Aliquots of membrane preparations were thawed at RT, resupended in assay buffer (D2, D3: 50 mM Tris-HCl, 120 mM NaCl, 5 mM MgCl2, 1 mM EDTA, 5 mM KCl, 1.5 mM CaCl2, pH=7.4; 5-HT2A: 50 mM Tris-HCl, 10 mM MgCl2, 1 mM EGTA, pH=7.4), homogenized with a Polytron for 20-30 sec at 12.000 rpm and adjusted to a final concentration of approximately 7.5 μg protein/well (D2, D3) and 15 μg protein/well (5-HT2A), respectively.
The binding affinity (Ki) of the compounds was determined using radioligand binding. […] The nonspecific binding was determined with equally composed reaction mixtures in the presence of 10 μM unlabelled spiperone. Per well 45 μl of Microscint 40 (Perkin Elmer, Schwerzenbach, Switzerland) was added, plates for sealed, shaken for 20 min and counted for 3 min on a Topcount Microplate Scintillation Counter (Can berra Packard SA, Zürich, Switzerland) with quenching correction.
The CPM value for each duplicate of a concentration of competing compound was averaged (y1), then the % specific binding was calculated according to the equation (((y1−non-specific)/(total binding−non-specific))×100). […] The affinity constant (Ki) was calculated using the Cheng-Prusoff equation Ki=(IC50/1+([L]/Kd), where [L] is the concentration of radioligand and Kd is the dissociation constant of the radioligand at the receptor as determined by the saturation isotherm.

[2] = target: human D2 receptor (Homo sapiens (Human), UniProt P14416); assay: Radioligand binding ([3H]-spiperone) to cloned receptors expressed in HEK-293 EBNA cells; conditions: HEK293 EBNA cell membranes expressing human D2
Procedure: as §1, §2, §3
(§4) The binding affinity (Ki) of the compounds was determined using radioligand binding. Membranes were incubated in a total volume of 200 μl with a fixed concentration of radioligand (final concentration approximately 0.7 nM [^3H]-spiperone for D2, 0.5 nM [^3H]-spiperone for D3, and 1.1 nM [^3H]-ketanserin for 5-HT2A) and ten concentrations of test compound in ranging between 10 μM-0.1 nM for 1 h at RT. At the end of the incubation, the reaction mixtures were filtered on to unifilter 96-well white microplates with bonded GF/C filters (Packard BioScience, Zürich, Switzerland; preincubated for 1 h in 0.1% polyethylenimine (PEI) in assay buffer) with a Filtermate 196 harvester (Packard BioScience) and washed 3 times with cold assay buffer. The nonspecific binding was determined with equally composed reaction mixtures in the presence of 10 μM unlabelled spiperone. Per well 45 μl of Microscint 40 (Perkin Elmer, Schwerzenbach, Switzerland) was added, plates for sealed, shaken for 20 min and counted for 3 min on a Topcount Microplate Scintillation Counter (Can berra Packard SA, Zürich, Switzerland) with quenching correction.
(§5) The CPM value for each duplicate of a concentration of competing compound was averaged (y1), then the % specific binding was calculated according to the equation (((y1−non-specific)/(total binding−non-specific))×100). Graphs were plotted with the % specific binding using XLfit, a curve fitting program that iteratively plots the data using Levenberg-Marquardt algorithm. The single site competition analysis equation used was y=A+((B−A)/(1+((x/C)D))), where y is the % specific binding, A is the minimum y, B is the maximum y, C is the IC50, x is the log 10 of the concentration of the competing compound and D is the slope of the curve (the Hill Coefficient). From these curves the IC50 (inhibition concentration at which 50% specific binding of the radioligand was displaced) and Hill coefficient were determined. The affinity constant (Ki) was calculated using the Cheng-Prusoff equation Ki=(IC50/1+([L]/Kd), where [L] is the concentration of radioligand and Kd is the dissociation constant of the radioligand at the receptor as determined by the saturation isotherm.

[3] = target: human D3 receptor (Homo sapiens (Human), UniProt P35462); assay: as above; conditions: HEK293 EBNA cell membranes expressing human D3
Procedure: as §1, §2, §3, §4, §5

SMILES	Ki [1]	Ki [2]	Ki [3]
O=C(CC1COCCO1)N[C@H]1CC[C@H](CCN2CCC(c3cccc4occc34)CC2)CC1 (mixture of isomers) [Example 12, trans-N-{4-[2-(4-Benzofuran-4-yl-piperidin-1-yl)-ethyl]-cyclohexyl}-rac-2-[1,4]dioxan-2-yl-acetamide]	4.1 nM	–	–
O=C(N[C@H]1CC[C@H](CCN2CCC(c3cccc4c3CCO4)CC2)CC1)C(O)C(F)(F)F (mixture of isomers) [Example 37, trans-(RS)—N-(4-{2-[4-(2,3-Dihydro-benzofuran-4-yl)-piperidin-1-yl]-ethyl}-cyclohexyl)-3,3,3-trifluoro-2-hydroxy-propionamide]	26.1 nM	–	–
O=C(N[C@H]1CC[C@H](CCN2CCC(c3cccc4c3CCO4)CC2)CC1)C1CCCO1 (mixture of isomers) [Example 53, (RS)-Tetrahydro-furan-2-carboxylic acid trans-(4-{2-[4-(2,3-dihydro-benzofuran-4-yl)-piperidin-1-yl]-ethyl}-cyclohexyl)-amide]	–	373 nM	–
O=C(N[C@H]1CC[C@H](CCN2CCC(c3cccc4c3CCO4)CC2)CC1)C1CCCOC1 (mixture of isomers) [Example 54, (RS)-Tetrahydro-pyran-3-carboxylic acid trans-(4-{2-[4-(2,3-dihydro-benzofuran-4-yl)-piperidin-1-yl]-ethyl}-cyclohexyl)-amide]	–	–	17.1 nM
CCC(C)C(=O)N[C@H]1CC[C@H](CCN2CCC(c3cccc4c3CCO4)CC2)CC1 (mixture of isomers) [Example 62, trans-N-(4-{2-[4-(2,3-Dihydro-benzofuran-4-yl)-piperidin-1-yl]-ethyl}-cyclohexyl)-(RS)-2-methyl-butyramide]	–	–	16.8 nM
O=C(C[C@@H]1COCCO1)N[C@H]1CC[C@H](CCN2CCC(c3cccc4c3CCO4)CC2)CC1 [Example 21, trans-N-(4-{2-[4-(2,3-Dihydro-benzofuran-4-yl)-piperidin-1-yl]-ethyl}-cyclohexyl)-(R)-2-[1,4]dioxan-2-yl-acetamide]	–	420 nM	9 nM
O=C(C[C@H]1COCCO1)N[C@H]1CC[C@H](CCN2CCC(c3cccc4c3CCO4)CC2)CC1 [Example 22, trans-N-(4-{2-[4-(2,3-Dihydro-benzofuran-4-yl)-piperidin-1-yl]-ethyl}-cyclohexyl)-(8)-2-[1,4]dioxan-2-yl-acetamide]	–	687 nM	10.7 nM
O=C(C[C@H]1CCCO1)N[C@H]1CC[C@H](CCN2CCC(c3cccc4c3CCO4)CC2)CC1 [Example 31, trans-N-(4-{2-[4-(2,3-Dihydro-benzofuran-4-yl)-piperidin-1-yl]-ethyl}-cyclohexyl)-(R)-2-(tetrahydro-furan-2-yl)-acetamide]	35.7 nM	514 nM	–
O=C(C[C@@H]1CCCO1)N[C@H]1CC[C@H](CCN2CCC(c3cccc4c3CCO4)CC2)CC1 [Example 32, trans-N-(4-{2-[4-(2,3-Dihydro-benzofuran-4-yl)-piperidin-1-yl]-ethyl}-cyclohexyl)-(S)-2-(tetrahydro-furan-2-yl)-acetamide]	32.5 nM	557 nM	11.7 nM
